One molecule from patent US10421747B2, “Quinoxaline derivatives useful as FGFR kinase modulators” (ASTEX THERAPEUTICS LTD, priority 2014, dated 2019) can be followed below.

The test system of experiment [1] is Ba/F3-FGFR4-transfected cells. Briefly: cells. The note with it: read-out: BAF3-FGFR4 (pIC50) (converted).
For experiment [2], the system named is Ba/F3-KDR-transfected cells. Briefly: cells. The note with it: read-out: BAF3-KDR (MIN IL3 pIC50) (converted).

`COc1cc(OC)c2c(c1)N(c1ccc3ncc(-c4cnn(C)c4)nc3c1)CCN(C(C)C)C2` [Compound 1]: the IC50 in experiment [1] is 10 µM; in experiment [2], more than 10 µM.
